The source of these data is paper PMC11879040 (2024).

Chains of the proteins cited; added tags and fusions are not shown.
UniProt P31645, whole entry: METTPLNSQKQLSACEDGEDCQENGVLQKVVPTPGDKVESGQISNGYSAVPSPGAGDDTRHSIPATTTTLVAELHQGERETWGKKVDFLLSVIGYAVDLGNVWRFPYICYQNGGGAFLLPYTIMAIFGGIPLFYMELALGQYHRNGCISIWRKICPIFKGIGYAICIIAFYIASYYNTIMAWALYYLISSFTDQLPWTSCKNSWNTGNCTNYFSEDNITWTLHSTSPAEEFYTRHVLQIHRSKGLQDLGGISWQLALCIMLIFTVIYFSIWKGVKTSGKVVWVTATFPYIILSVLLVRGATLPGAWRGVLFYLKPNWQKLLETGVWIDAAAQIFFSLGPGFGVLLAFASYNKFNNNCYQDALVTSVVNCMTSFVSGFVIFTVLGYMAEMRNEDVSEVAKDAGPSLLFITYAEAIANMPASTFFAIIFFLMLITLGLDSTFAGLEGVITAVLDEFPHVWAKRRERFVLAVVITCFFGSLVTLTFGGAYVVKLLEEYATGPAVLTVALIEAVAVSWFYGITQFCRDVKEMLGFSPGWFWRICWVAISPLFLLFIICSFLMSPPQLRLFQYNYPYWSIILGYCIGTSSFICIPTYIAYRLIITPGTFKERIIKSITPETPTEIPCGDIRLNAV
UniProt P08172, whole entry: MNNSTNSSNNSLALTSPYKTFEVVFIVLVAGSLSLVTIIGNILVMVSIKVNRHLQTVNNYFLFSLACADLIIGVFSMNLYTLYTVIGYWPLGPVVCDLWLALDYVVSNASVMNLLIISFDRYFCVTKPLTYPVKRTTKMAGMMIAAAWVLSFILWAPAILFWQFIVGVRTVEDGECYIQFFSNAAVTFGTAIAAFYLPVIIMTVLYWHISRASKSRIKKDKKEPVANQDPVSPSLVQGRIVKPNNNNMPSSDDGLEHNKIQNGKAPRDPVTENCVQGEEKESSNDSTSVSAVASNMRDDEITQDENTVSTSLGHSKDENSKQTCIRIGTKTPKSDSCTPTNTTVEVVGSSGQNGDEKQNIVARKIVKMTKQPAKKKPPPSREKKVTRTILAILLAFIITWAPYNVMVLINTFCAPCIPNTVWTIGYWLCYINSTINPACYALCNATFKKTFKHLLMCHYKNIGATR
UniProt P20309, whole entry: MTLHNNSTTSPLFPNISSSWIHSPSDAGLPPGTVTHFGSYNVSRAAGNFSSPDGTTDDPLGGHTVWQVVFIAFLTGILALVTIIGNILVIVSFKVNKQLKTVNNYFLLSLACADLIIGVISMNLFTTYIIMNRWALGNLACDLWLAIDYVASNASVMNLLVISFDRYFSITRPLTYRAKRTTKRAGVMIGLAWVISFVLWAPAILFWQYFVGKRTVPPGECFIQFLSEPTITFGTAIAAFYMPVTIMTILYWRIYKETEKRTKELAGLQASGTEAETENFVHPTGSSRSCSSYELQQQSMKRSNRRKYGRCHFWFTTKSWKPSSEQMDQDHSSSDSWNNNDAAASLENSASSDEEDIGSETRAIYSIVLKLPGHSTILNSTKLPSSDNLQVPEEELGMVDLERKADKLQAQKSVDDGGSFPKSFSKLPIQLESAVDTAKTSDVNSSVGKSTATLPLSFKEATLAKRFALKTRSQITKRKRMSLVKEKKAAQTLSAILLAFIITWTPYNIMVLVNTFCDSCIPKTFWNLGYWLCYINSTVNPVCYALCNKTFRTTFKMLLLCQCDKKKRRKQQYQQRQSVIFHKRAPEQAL

Experiment [1] has as its target Sodium-dependent serotonin transporter, SLC6A4 (h) (Homo sapiens, UniProt P31645).
Experiment [2] has as its target Muscarinic acetylcholine receptor M2, CHRM2 (h) (Homo sapiens, UniProt P08172).
The target of experiment [3] is Muscarinic acetylcholine receptor M3, CHRM3 (h) (Homo sapiens, UniProt P20309).

Turning to “(4S,4aR,5S,5aR,6S,12aS)-4-(Dimethylamino)-3,5,6,10,12,12a-hexahydroxy-6-methyl-1,11-dioxo-1,4,4a,5,5a,6,11,12a-octahydrotetracene-2-carboxamide--hydrogen chloride (1/1) [Oxytetracycline hydrochloride]”, the Specific binding in experiment [1] was -0.5%; in experiment [2] it was -10.6%. For the same substance, in experiment [3], the “IPP screening %, Specific binding” value is -6.6%.
